Data on two substances can be found in paper PMC6506529, “Structural Insights into Catalytic Versatility of the Flavin-dependent Hydroxylase (HpaB) from Escherichia coli” (Scientific Reports, 2019).

The subject of the series is O=C1C[C@@H](c2ccc(O)cc2)Oc2cc(O)cc(O)c21. The experiment in a line: purified protein. To be noted: apparent, 10 μM FAD, 1 mM NADH, 500 nM HpaC, 20 mM KPi pH 7.0, 30 °C.

What is called Km is the concentration of substrate that gives half-maximal velocity. As usually defined, the kcat is the number of substrate molecules converted per active site and unit of time at saturation. What is called kcat/Km is the turnover number divided by the Michaelis constant. In the case of “EcHpaB (Escherichia coli; A211D/E216S/F208S/M214S/N217D/Q212L/V213G)”, the Km was 191.6 ± 33.6 µM, the turnover number (kcat) worked out at 0.15 s⁻¹ and the kcat/Km was determined as 800 M⁻¹ s⁻¹.

Turning to “EcHpaB (Escherichia coli; A211D/F208A/G207M/G209M/S210V)”, the Km was 1061.7 ± 21.1 µM, the kcat was determined as 0.108 s⁻¹ and the kcat/Km was 100 M⁻¹ s⁻¹.
